# Measured affinities in a library of Ab-14 heavy chain variants

Target peptide (SARS-CoV-2 spike, HR2 region): PDVDLGDISGINAS

Ab-14 is the parent antibody, in scFv form: VH, then the linker GGGGSGGGGSGGGGS, then VL. The light chain is unchanged in all variants.
VH: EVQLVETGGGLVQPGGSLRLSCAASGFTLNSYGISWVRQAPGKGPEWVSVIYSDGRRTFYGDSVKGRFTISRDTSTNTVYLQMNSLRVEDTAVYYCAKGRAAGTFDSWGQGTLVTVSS
VL: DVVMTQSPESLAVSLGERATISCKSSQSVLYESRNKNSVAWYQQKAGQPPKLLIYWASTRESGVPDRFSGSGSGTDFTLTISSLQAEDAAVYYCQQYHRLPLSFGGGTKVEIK

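The parent was found by panning a naive human phage display library on the peptide. This is the validation round: designs drawn from the data on random variants, tested in the same kind of assay. Group labels follow the data file (En: ensemble of fine-tuned language models; HC: hill climbing; Gen: genetic algorithm; Gibbs: Gibbs sampling; a sequence that several methods proposed may carry one label only). Affinity was read by AlphaSeq, a pooled yeast mating assay with surface-displayed partners. Pairs that bind mate more often; barcode pairs of the diploids are counted by sequencing. Each replicate has its own calibration line, from reference interactions of the BCL2 family. Mating was done six times.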

Variants are written as CDR1, CDR2 and CDR3 of the heavy chain (limits as in the source). Parent: GFTLNSYGIS, VIYSDGRRTFYGDSVK, GRAAGTFDS. Variants here have more than six changes. The Kd shown is the geometric mean over detected replicates; a lower Kd is a better binder. Where no diploid with the target was found in any replicate, the entry reads "no signal": below detection, most likely a poor binder, though not proof of it. The authors' rule: three or more of the six replicates give a measured affinity, fewer mean a poor binder.

The variant GFDLNEYGIS | VIYADGRRTAYLDSVK | GQIAGTFDT [En_HC] showed 350 pM (6 of 6 replicates). For GFDLNEYGIS | VIYADGMRTFYADSVK | GNNAGTFIS [En_HC], the assay gave 3.5 nM (1 of 6 replicates). The variant GFDLDEYGIS | VIYADGKRTAYADDVK | GETAGTFDV [En_Gen] showed 1.1 nM (6 of 6 replicates). The variant GFDLNEYGIS | VIYADGKRTYYADSVK | GNEAGTFDV [En_Gen] showed 530 pM (6 of 6 replicates). For GFDLNEYGIS | VIYADGKRTAYADNVK | GNVAGTFDV [En_Gen], the assay gave 480 pM (6 of 6 replicates). The variant GFDLDEYGIS | VIYADGMRTVYADSVK | GQNAGTFDV [En_Gen] gave 2.3 nM (6 of 6 replicates).

The variant GFDLDEYGIS | VIYADGMRTAYTDSVK | GETAGTFDV [En_Gen] showed 1.6 nM (4 of 6 replicates). For GFEIDEFGIS | VIYADGKRTSYSDTVK | GQLGNAFDL [En_Gibbs], the assay gave no signal (0 of 6 replicates). The variant GFDLNEYGIS | VIYADGMRTAYQDSVK | GNVAGTFDQ [En_Gen] showed 460 pM (6 of 6 replicates). With GFDLDQYGIS | VIYADGMRAGYADSVK | GHWGGKFLV [En_Gibbs] the result was no signal (0 of 6 replicates). For GFNLDEYGIS | VIYADGVRTKYIDNVK | GVLQDLQMG [En_Gibbs], the assay gave no signal (0 of 6 replicates). The variant GFSLDEYGIS | VIYADGMRQSYCENVK | GVHGCTFGL [En_Gibbs] showed no signal (0 of 6 replicates).

The variant GFDLNEYGIS | VIYADGVRKAYADSVK | GNVAGTFDQ [En_Gen] showed 630 pM (6 of 6 replicates). The variant GFDLNEYGIS | VIYADGVRTFYADSVK | GEVAGTFDV [En_Gen] showed 300 pM (6 of 6 replicates). With GFNLNEYGIS | VIYADGVRTFYSDSVK | GEAGGTFDV [En_HC] the result was 5.7 nM (6 of 6 replicates). For GFDLNEYGIS | VIYADGKRTAYTDSVK | GNVAGTFDT [En_Gen], the assay gave 340 pM (6 of 6 replicates). The variant GFDINEYGIS | VIYADGRRTFYADSVK | GQTAGTFDE [En_HC] showed 370 pM (6 of 6 replicates). The variant GFDLNEYGIS | VIYADGMRTAYADSVK | GNNAGTFVV [En_Gen] gave 2.3 nM (6 of 6 replicates).

The variant GFDLNEYGIS | VIYADGMRTAYSDDVK | GGNAGTFDV [En_Gen] showed 220 pM (6 of 6 replicates). For GFDLNEYGIS | VIYADGMRTAYVDNVK | GEVAGTFDQ [En_Gen], the assay gave 480 pM (6 of 6 replicates). For GFDLDQYGIS | VIYADGKRVAYTDDVK | GVNGGMALV [En_Gibbs], the assay gave no signal (0 of 6 replicates). The variant GFDLNEYGIS | VIYADGMRTAYSDSVK | GQVAGTFDM [En_Gen] showed 240 pM (6 of 6 replicates). The variant GQDLSEYGIS | VIYADGVRRSYANSVK | GNTSGNFSS [En_Gibbs] showed no signal (0 of 6 replicates). The variant GFNLNEYGIS | VIYADGMRTFYADSVK | GEHAGSFDI [En_HC] showed 200 pM (6 of 6 replicates).

With GDVLDEYGIS | VIYADGRRTFYAQDVK | GGKAGSLSV [En_Gibbs] the result was 88 nM (1 of 6 replicates). The variant GFDLNEYGIS | VIYADGRRTYYIDSVK | GTNAGTFDV [En_HC] showed 12 nM (6 of 6 replicates). For GFDLNEYGIS | VIYADGRRTQYSDSVK | GEAAGTFDL [En_HC], the assay gave 1.0 nM (6 of 6 replicates). The variant GMGLSEYGIS | VIYADGMRTYYDNSVK | GALAGTFDE [En_Gibbs] showed 7.8 nM (6 of 6 replicates). The variant GFQLDEVGIS | VIYADGARTAYKSKVK | GGNGDSFDI [En_Gibbs] gave no signal (0 of 6 replicates). With GFDLNEYGIS | VIYADGRRTFYADSVK | GQEAGTFNM [En_HC] the result was 280 pM (6 of 6 replicates).

With GFDLNEYGIS | VIYADGVRTAYVDKVK | GNVAGTFDV [En_Gen] the result was 440 pM (6 of 6 replicates). The variant GFDLDEYGIS | VIYADGQRTAYSDSVK | GNVAGTFDQ [En_Gen] gave 370 pM (6 of 6 replicates). For GFDLNEYGIS | VIYADGMRTAYANDVK | GEVAGTFDI [En_Gen], the assay gave 190 pM (6 of 6 replicates). For GFDLNEYGIS | VIYADGMRTVYADDVK | GENAGTFDV [En_Gen], the assay gave 270 pM (6 of 6 replicates). With GFDLNEYGIS | VIYADGRRTFYADSVK | GENAGTFDF [En_HC] the result was 730 pM (6 of 6 replicates). With GFDLNEYGIS | VIYADGRRTAYIDSVK | GHQAGTFDS [En_HC] the result was 1.6 nM (6 of 6 replicates).

Of ten entries with the parent sequence, four were seen in most replicates (averages 2.2 nM to 240 nM), three in one and three in none, so single entries are noisy. Three control strains display no target. For all heavy chain designs, 1% of the pairings with them gave a signal, with a median of 120 nM and one signal in twenty below 7.0 nM, so weak values seen in few replicates may be background. Values of this round are not directly comparable with the first-round values of the same sequences.

Source: Li et al. 2023 (doi:10.1038/s41467-023-39022-2), MIT Lincoln Laboratory and A-Alpha Bio; data file from the FLAb repository.